The source of these data is patent US4908365A, “Benzhydryloxyethylpiperazine derivatives, processes for their preparation and pharmaceutical compositions in which they are present” (priority 1986, dated 1990).

Series [1] relates to peritoneal pain caused by phenylbenzoquinone (PBQ). Briefly: Peripheral analgesic activity (phenylbenzoquinone peritoneal pain). Type of series: in vivo, mice. To be noted: mouse, s.c.; 30 min.
In another series the test system is mice. Put plainly: Toxicity test: 50% lethal dose (LD50) in mice. The settings on record: i.p.

The structures appear in SMILES notation.

As usually defined, the LD50 is the dose at which mortality reaches 50%. Low values mean a more toxic substance, high ones a less toxic substance. For `Cc1ccc(C(OCCN2CCN(CCn3cnc4c3c(=O)n(C)c(=O)n4C)CC2)c2ccccc2)cc1` (stereo not drawn), the “Peripheral analgesic activity ED50” value in series [1] turned out to be 1.56 mg/kg. In the series with mice, this compound came in with an LD50 of 178 mg/kg.
On to `Cn1c(=O)c2c(ncn2CCN2CCN(CCOC(c3ccccc3)c3ccccc3)CC2)n(C)c1=O`, for which, in the series on mice, the LD50 was determined as 240 mg/kg.
